Target: T1, aromatase (Rattus norvegicus, UniProt P22443)
T1 sequence (P22443 1-508): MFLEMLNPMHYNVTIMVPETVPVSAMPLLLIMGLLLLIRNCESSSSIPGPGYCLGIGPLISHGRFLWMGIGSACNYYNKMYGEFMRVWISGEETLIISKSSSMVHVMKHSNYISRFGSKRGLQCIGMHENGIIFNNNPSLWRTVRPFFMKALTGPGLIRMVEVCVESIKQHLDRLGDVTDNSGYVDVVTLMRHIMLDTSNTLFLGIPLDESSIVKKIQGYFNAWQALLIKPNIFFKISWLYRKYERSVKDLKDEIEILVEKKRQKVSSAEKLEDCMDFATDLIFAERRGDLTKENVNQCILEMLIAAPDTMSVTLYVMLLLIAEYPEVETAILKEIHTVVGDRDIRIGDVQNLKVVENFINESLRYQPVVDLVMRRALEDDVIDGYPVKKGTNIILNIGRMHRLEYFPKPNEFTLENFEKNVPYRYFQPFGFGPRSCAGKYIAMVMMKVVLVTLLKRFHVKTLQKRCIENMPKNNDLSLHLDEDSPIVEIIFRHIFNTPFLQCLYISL
Experiment: biochemical
Settings: rat ovarian microsomes; substrate (androstenedione) concentration 0.1 μM

EC50: 210 nM
SMILES: Clc1ccc2c(c1)C(n1ccnc1)CC2 (stereo not shown) [1-(6-chloro-2,3-dihydro-1H-inden-1-yl)-1H-imidazole nitrate]

Reference: patent US4659730A, “Aromatase inhibiting imidazole derivatives” (Eli Lilly and Company, priority 1984, dated 1987)
